Broadly, the inhibition is the drop in the measured response relative to a control, in per cent. A high value points to a strong effect. The term AUC(0-inf) denotes total exposure, with the tail of the curve extrapolated. Read a low AUC(0-inf) as low exposure. By MRT is commonly meant the average time that molecules of a dose stay in the body. Usually Cmax stands for the maximum level reached in the sampled fluid or tissue. The term Vd denotes a proportionality between amount in the body and measured concentration, not a real space. Usually AUC(0-t) stands for the area under the concentration-time curve up to a stated or last time point. Read a high AUC(0-t) as high exposure. Usually half-life stands for the time needed for the level to fall by half in the phase considered. Low readings indicate rapid decline, high ones slow decline. Broadly, the bioavailability is the share of a dose that reaches the circulation, judged against a reference dose that is usually intravenous. The IC50 is the point on the concentration scale where inhibition reaches its midpoint. Low values mean greater potency in that assay, high ones weaker potency in that assay. By Tmax is commonly meant the time at which the peak concentration occurs. Broadly, the clearance is the volume of plasma or blood freed of the substance per unit of time.

Sequences of proteins named here, by UniProt entry; tags and fusion partners are left off. A change or cut given only in a name is not applied to a line headed by its entry.
UniProt P09874, whole entry: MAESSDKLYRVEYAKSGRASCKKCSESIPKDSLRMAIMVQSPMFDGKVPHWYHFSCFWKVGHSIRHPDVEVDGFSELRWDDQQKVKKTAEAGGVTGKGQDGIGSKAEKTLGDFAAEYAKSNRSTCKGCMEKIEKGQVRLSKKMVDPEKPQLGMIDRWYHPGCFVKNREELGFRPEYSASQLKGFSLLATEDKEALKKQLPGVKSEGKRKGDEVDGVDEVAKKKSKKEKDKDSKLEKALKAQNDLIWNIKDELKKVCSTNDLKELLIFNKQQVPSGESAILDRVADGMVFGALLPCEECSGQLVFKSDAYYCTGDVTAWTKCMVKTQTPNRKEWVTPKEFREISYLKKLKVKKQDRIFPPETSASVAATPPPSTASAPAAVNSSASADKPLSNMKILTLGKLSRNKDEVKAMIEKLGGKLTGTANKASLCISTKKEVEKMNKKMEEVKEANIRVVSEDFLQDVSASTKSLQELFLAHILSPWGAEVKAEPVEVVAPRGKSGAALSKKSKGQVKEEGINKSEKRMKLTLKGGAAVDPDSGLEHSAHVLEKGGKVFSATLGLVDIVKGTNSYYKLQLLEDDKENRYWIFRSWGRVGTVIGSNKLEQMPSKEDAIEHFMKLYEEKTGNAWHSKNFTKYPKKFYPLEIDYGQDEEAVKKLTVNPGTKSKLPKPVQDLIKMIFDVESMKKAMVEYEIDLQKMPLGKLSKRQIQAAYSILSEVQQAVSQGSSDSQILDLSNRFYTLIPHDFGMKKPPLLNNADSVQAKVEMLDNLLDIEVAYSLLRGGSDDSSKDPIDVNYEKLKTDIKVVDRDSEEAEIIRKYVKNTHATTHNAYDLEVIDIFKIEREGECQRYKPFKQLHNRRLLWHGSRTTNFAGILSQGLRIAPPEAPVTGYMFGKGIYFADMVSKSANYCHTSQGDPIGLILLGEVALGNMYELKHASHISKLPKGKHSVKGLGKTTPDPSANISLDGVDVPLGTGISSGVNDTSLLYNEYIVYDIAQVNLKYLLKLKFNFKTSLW
UniProt Q9UGN5: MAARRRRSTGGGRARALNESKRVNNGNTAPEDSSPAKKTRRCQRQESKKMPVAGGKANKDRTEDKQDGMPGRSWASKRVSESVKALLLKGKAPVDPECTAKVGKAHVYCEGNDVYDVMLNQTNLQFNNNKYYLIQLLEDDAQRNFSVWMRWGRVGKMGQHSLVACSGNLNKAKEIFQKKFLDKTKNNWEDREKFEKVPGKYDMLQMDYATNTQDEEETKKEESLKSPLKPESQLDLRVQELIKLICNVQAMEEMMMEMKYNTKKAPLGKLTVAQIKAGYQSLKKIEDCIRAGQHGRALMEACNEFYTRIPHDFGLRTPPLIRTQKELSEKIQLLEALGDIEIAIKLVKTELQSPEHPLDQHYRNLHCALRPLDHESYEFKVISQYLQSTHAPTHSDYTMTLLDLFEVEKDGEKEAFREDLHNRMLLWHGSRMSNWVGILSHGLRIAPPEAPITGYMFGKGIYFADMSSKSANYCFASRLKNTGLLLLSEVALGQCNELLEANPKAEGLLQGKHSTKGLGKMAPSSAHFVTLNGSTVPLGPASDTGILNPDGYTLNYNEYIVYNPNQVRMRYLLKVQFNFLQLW

These results are taken from ChEMBL document CHEMBL5512675, “Design of Selective PARP-1 Inhibitors and Antitumor Studies” (J Med Chem, 2024).

The target in series [1] is Poly [ADP-ribose] polymerase 1 (Homo sapiens, UniProt P09874). Particulars: dose 100.0 nM, time 30.0 min.
Series [2] has as its system SK-OV-3. Description: animal or person. Particulars: Mus musculus, SK-OV-3, po, 744 h, read-out: TGI.
Series [3] is described as follows: in vivo. Particulars: male, Sprague-Dawley, rat, iv, 4 mg/kg.
The nature of series [4]: in vivo. Particulars: male, Sprague-Dawley, rat, po, 20 mg/kg.
The nature of series [5]: in vivo. Particulars: male, Sprague-Dawley, rat, iv, 4 mg/kg. The source holds these as a separate data set.
A short description of series [6]: in vivo. Particulars: male, Sprague-Dawley, rat, po, 20 mg/kg. The source holds these as a separate data set.
A short description of series [7]: in vivo. Particulars: male, Sprague-Dawley, rat, iv, 4 mg/kg. This is another data set of the same source.
A short description of series [8]: in vivo. Particulars: male, Sprague-Dawley, rat, po, 20 mg/kg. This is another data set of the same source.
A short description of series [9]: in vivo. Particulars: male, Sprague-Dawley, rat, iv, 4 mg/kg. The source holds these as a separate data set.
Series [10] deals with SK-OV-3. Description: cells. Particulars: Homo sapiens, SK-OV-3, 36 h, read-out: Activity.
Series [11] is described as follows: in vivo. Particulars: male, Sprague-Dawley, rat, iv, 4 mg/kg. The source holds these as a separate data set.
Series [12] can be described thus: in vivo. Particulars: male, Sprague-Dawley, rat, po, 20 mg/kg. This is another data set of the same source.
Series [13] is described as follows: in vivo. Particulars: male, Sprague-Dawley, rat, po, 20 mg/kg. The source holds these as a separate data set.
The target of series [14] is Poly [ADP-ribose] polymerase 2 (Homo sapiens, UniProt Q9UGN5). Description: Inhibition of GST-tagged human PARP2 incubated for 30 mins by chemiluminescence based UV/visible spectrophotometric analysis.
A short description of series [15]: in vivo. Particulars: male, Sprague-Dawley, rat, iv, 4 mg/kg. The source holds these as a separate data set.
Series [16] in a line: in vivo. Particulars: male, Sprague-Dawley, rat, po, 20 mg/kg. This is another data set of the same source.
Series [17] has as its system SK-OV-3. Description: cells. Particulars: Homo sapiens, SK-OV-3, 36 h, read-out: Activity. The source holds these as a separate data set.
Series [18] is described as follows: in vivo. Particulars: male, Sprague-Dawley, rat, po, 20 mg/kg. This is another data set of the same source.
In series [19] the test system is SK-OV-3. Kind of series: cells. Particulars: Homo sapiens, SK-OV-3, 36 h, read-out: Activity. This is another data set of the same source.
Series [20] can be described thus: in vivo. Particulars: male, Sprague-Dawley, rat, iv, 4 mg/kg. The source holds these as a separate data set.
Series [21] concerns SK-OV-3. Description: animal or person. Particulars: Mus musculus, SK-OV-3, po, 744 h, read-out: TGI. This is another data set of the same source.
The nature of series [22]: in vivo. Particulars: male, Sprague-Dawley, rat, iv, 4 mg/kg. The source holds these as a separate data set.

In turn, `COc1cc(/C=N/NC(N)=S)c(Br)c(Br)c1OC(=O)c1ccco1` returned an inhibition in [1] of 43.2%.

`COc1cc(-c2nc3c(C(N)=O)cccc3[nH]2)ccc1OS(=O)(=O)c1ccc(Br)cc1` had an inhibition in [1] of 32.5%.

With `COc1cc(-c2nc3c(C(N)=O)cccc3[nH]2)c(Br)c(Br)c1OC(=O)c1ccc(F)cc1`, in [1], the inhibition was 47.8%.

`COc1cc(-c2nc3c(C(N)=O)cccc3[nH]2)cc(Br)c1OS(=O)(=O)c1c(C)cc(C)cc1C`: the inhibition in series [1] stood at 61.6%.

As to `COc1cc(-c2nc3c(C(N)=O)cccc3[nH]2)cc(Br)c1OS(=O)(=O)c1cccc(Br)c1`, the inhibition in series [1] is 41.9%.

In turn, `COc1cc(/C=N/NC(N)=S)cc(Br)c1OS(=O)(=O)C(F)(F)F` displayed an inhibition in series [1] of 13.5%.

Consider `COc1cc(-c2nc3c(C(N)=O)cccc3[nH]2)ccc1OC(=O)c1ccccc1C(F)(F)F`, for which the inhibition in series [1] turned out to be 40.1%.

Regarding `COc1cc(-c2nc3c(C(N)=O)cccc3[nH]2)c(Br)c(Br)c1OS(=O)(=O)c1ccc(F)c(Cl)c1`, the inhibition in [1] was 48.1%.

For the molecule `CCCS(=O)(=O)Oc1c(Br)cc(-c2nc3c(C(N)=O)cccc3[nH]2)cc1OC`, the inhibition in [1] was 66%.

On to `COc1cc(/C=N/NC(N)=S)c(Br)c(Br)c1OC(=O)c1ccc(Br)cc1`, for which the inhibition in series [1] came out at 8.21%.

In series [1], `COc1cc(-c2nc3c(C(N)=O)cccc3[nH]2)cc(Br)c1OC(=O)C(C)(C)C` displayed an inhibition of 62.9%.

With `COc1cc(/C=N/NC(N)=S)ccc1OS(=O)(=O)c1c(C)cc(C)cc1C`, in [1], the inhibition amounted to 42.5%.

For the molecule `COc1cc(-c2nc3c(C(N)=O)cccc3[nH]2)c(Br)c(Br)c1OCc1ccccc1C(F)(F)F`, in series [1], the inhibition is 42.5%.

Take `COc1cc(-c2nc3c(C(N)=O)cccc3[nH]2)c(Br)c(Br)c1OS(=O)(=O)c1ccc(NC(C)=O)cc1`: the inhibition in [1] is 45.7%.

The molecule `COc1cc(-c2nc3c(C(N)=O)cccc3[nH]2)c(Br)c(Br)c1OCc1ccc(Br)cc1` registered an inhibition in series [1] of 42.8%.

The molecule `CCCCOc1c(Br)cc(/C=N/NC(N)=S)cc1OC` returned an inhibition in series [1] of 41%.

In [1], `COc1cc(-c2nc3c(C(N)=O)cccc3[nH]2)ccc1OS(=O)(=O)c1c(C)cc(C)cc1C` returned an inhibition of less than 5%.

On to `COc1cc(/C=N/NC(N)=S)c(Br)c(Br)c1OCc1ccc(C)cc1`, for which the inhibition in series [1] amounted to 35.4%.

`COc1ccc(S(=O)(=O)Oc2c(Br)cc(-c3nc4c(C(N)=O)cccc4[nH]3)cc2OC)cc1` registered an inhibition in [1] of 44.1%.

In turn, `CCCS(=O)(=O)Oc1c(OC)cc(/C=N/NC(N)=S)c(Br)c1Br` had an inhibition in [1] of 23.7%.

Regarding `COc1cc(-c2nc3c(C(N)=O)cccc3[nH]2)cc(Br)c1OS(=O)(=O)c1ccccc1C`, the inhibition in vivo at 50 mg/kg in [2] stood at 77.3%. In addition, the area under the curve AUC(0-inf) in series [3] was 1040 ng·h/mL; in series [18], 103 ng·h/mL. Moreover, the MRT came out at 102 min in series [4] and 16.8 min in [5]. The Cmax in series [6] stood at 42 ng/mL; in [9], 2210 ng/mL. The Vd in [7] amounted to 1.19 L/kg. Also, the AUC(0-t) in series [8] was found to be 88.8 ng·h/mL; in [15], 1030 ng·h/mL. In [10], the viability at 10 µM was 51.8%. The half-life is 19.2 min in series [11] and 94.2 min in series [13]. Further, the bioavailability in series [12] is 2.49%. Further, it took 1930 nM to reach half-maximal inhibition in [14] (IC50). The results for the Tmax in series [16] and in [22] were 30 min and 4.8 min, respectively. In [17], the viability at 20 µM stood at 36.5%. Also, the viability at 5 µM in [19] came out at 73.9%. In series [20], the clearance was 67 mL/min/kg. Besides, in series [21], the inhibition in vivo at 25 mg/kg stood at 66.3%.

`CCc1ccc(C(=O)Oc2c(OC)cc(-c3nc4c(C(N)=O)cccc4[nH]3)c(Br)c2Br)cc1` had an inhibition in series [1] of 45.1%.

In series [1], `COc1cc(/C=N/NC(N)=S)ccc1OS(=O)(=O)C(F)(F)F` had an inhibition of 13.5%.

`COc1cc(-c2nc3c(C(N)=O)cccc3[nH]2)c(Br)c(Br)c1OC(C)=O`: the inhibition in [1] was found to be 42.6%.

Turning to `COc1cc(/C=N/NC(N)=S)c(Br)c(Br)c1OC(=O)c1ccc(CCl)cc1`, the inhibition in series [1] was 23.4%.

Regarding `COc1cc(/C=N/NC(N)=S)cc(Br)c1OC(=O)C(C)(C)C`, the inhibition in series [1] amounted to 35.1%.

Turning to `COc1cc(/C=N/NC(N)=S)cc(Br)c1OC(C)=O`, the inhibition in series [1] turned out to be 28.3%.

For `COc1cc(-c2nc3c(C(N)=O)cccc3[nH]2)c(Br)c(Br)c1OC`, in series [1], the inhibition is 41.7%.

The molecule `COc1cc(-c2nc3c(C(N)=O)cccc3[nH]2)cc(Br)c1OS(=O)(=O)c1cccc2ccccc12` yielded an inhibition in series [1] of 40.3%.

`COc1cc(/C=N/NC(N)=S)c(Br)c(Br)c1OCc1ccc(Br)cc1`: in [1], the inhibition was determined as 47.4%.

In series [1], `COc1cc(-c2nc3c(C(N)=O)cccc3[nH]2)cc(Br)c1OS(=O)(=O)c1ccc(I)cc1` had an inhibition of 42.1%.

Molecule `COc1cc(-c2nc3c(C(N)=O)cccc3[nH]2)cc(Br)c1OC(=O)CCBr` gave an inhibition in series [1] of 43.5%.

Molecule `COc1cc(-c2nc3c(C(N)=O)cccc3[nH]2)c(Br)c(Br)c1OC(=O)CCBr` came in with an inhibition in [1] of 36.4%.

In series [1], `COc1cc(-c2nc3c(C(N)=O)cccc3[nH]2)c(Br)c(Br)c1OS(=O)(=O)c1ccc(C)cc1` registered an inhibition of 45.7%.

Take `COc1cc(-c2nc3c(C(N)=O)cccc3[nH]2)ccc1OS(=O)(=O)c1cccc(Br)c1`: the inhibition in [1] was less than 5%.

For the molecule `COc1cc(-c2nc3c(C(N)=O)cccc3[nH]2)c(Br)c(Br)c1OS(=O)(=O)c1ccc(OC(F)(F)F)cc1`, the inhibition in [1] is 44.3%.
